Data taken from patent publication EP4843575A1, “PHARMACEUTICAL COMPOSITION COMPRISING BRAF INHIBITOR AND USE OF PHARMACEUTICAL COMPOSITION IN MEDICINE” (dated 2026).
Values belong to the molecule of their own block, whether it stands above or below them.

Chains of the proteins cited; added tags and fusions are not shown. Residues count along the entry.
UniProt P15056, 416-766 V600E limits assumed: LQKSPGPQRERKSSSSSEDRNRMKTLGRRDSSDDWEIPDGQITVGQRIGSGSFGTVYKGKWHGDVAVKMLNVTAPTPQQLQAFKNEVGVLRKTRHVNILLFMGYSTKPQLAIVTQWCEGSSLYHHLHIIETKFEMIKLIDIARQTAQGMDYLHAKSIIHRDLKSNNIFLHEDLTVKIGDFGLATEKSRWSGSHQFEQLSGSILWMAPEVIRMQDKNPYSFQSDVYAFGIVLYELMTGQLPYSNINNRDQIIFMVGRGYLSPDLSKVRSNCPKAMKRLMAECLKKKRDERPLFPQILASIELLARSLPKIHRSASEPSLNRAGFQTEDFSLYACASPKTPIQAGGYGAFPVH

Experiments:
[1] = tested on: A375 cells; assay: Inhibition of A375 cell proliferation; conditions: 72 h
Procedure: A375 cells (ATCC, CRL-1619) were cultured in DMEM complete medium (+10% FBS) in a CO2 incubator at 37°C for 48 h. The cells were trypsinized and counted, and then the density was adjusted to 1.67 × 10^4 cells/mL. 90 µL (1500 cells) of cells were inoculated into each well of a 96-well transparent bottom plate, and the plate was transferred to a CO2 incubator and the cells were cultured overnight at 37°C. After the cells were incubated overnight, 10 µL of the diluted compound (final concentration starting from 10 µM, 3-fold dilution, 11 concentrations) was added to each well using a multi-channel pipette. The positive control was a serum-free medium containing DMSO. After mixing evenly, the cells were placed in a CO2 incubator at 37°C for 72 h. After the incubation, the CellCounting-Lite®2.0 kit detection solution (Vazyme, DD1101-03) was taken out and returned to room temperature. 100 µL of CellCounting-Lite2.0 detection solution was added to each well, the plate was sealed with a sealing film, and the plate was placed on a shaker for shaking for 15 min (the whole process should be kept away from light). The Luminescence module of the microplate reader (BMG LRBTECH) was used to detect the fluorescence signal value LUM of each well. The formula Inhibition rate% = ((LUM Solvent−LUM Compound)/(LUM Solvent))∗100% [formula] was used to calculate the inhibition rate of the compound. The Graphpad software log(inhibitor) vs. response -- Variable slope (four parameters) equation was used to perform fitting analysis and calculate the IC50value of the sample. The ordinate of the data is the percentage of inhibition rate, and the abscissa is the logarithm of the sample concentration (Log10).

[2] = biological target: BRAFV600E (Homo sapiens, UniProt P15056, V600E); assay: BRAFV600E enzyme activity test (ADP-Glo); conditions: inhibitory activity on BRAFV600E
Procedure: BRAFV600E (ABCAM, ab204154) and MEK1K97R (USBio, M2865-06J) proteins were diluted at an appropriate dilution factor using 1 × Assay buffer (PH = 7.4 Tris-HCl buffer, supplemented with 10 mM MgCl2) such that the final concentration of BRAFV600E was 10 ng/µL and the final concentration of substrate MEK1K97R was 1 µM. 1 µL of BRAFV600E, 1 µL of compound serial dilution (final concentration starting from 2 µM, 5-fold dilution, 8 concentrations), and 6 µL of Assay buffer were pipetted to a 384-well reaction plate with a capacity of 20 µL. The plate was pre-incubated in a constant temperature incubator at 37°C for 30 min. 1 µL of 200 µM ATP and 1 µM MEK1 K97R were added to the reaction wells corresponding to the compound incubation, mixed evenly by vortexing, and preincubation was performed in a constant temperature incubator at 37°C for 60 min for enzymatic reaction. After the reaction was completed, 5 µL of the above reaction product was pipetted to another 384-well plate, and 5 µL of formulated ADP-Glo™ Reagent (Promega, V9101) was added and mixed evenly by pipetting, and then the plate was placed at room temperature for 40 min. 10 µL Kinase Detection Reagent was added to the 384-well plate and incubated at room temperature for 40 min. Finally, a microplate reader (BMG LRBTECH) was used and Luminescence module was selected to detect the LUM fluorescence value of each well (the gain value was fixed at 3600), and the formula Inhibition rate% = (1−(LUM Compound−LUM Background)/(LUM Solvent−LUM Background))∗100% [formula] was used to calculate the inhibition rate of the compound on BRAFV600E. The Graphpad software log(inhibitor) vs. response -- Variable slope (four parameters) equation was used to perform fitting analysis and calculate the IC50value of the sample.

[3] = Rat pharmacokinetic assay; conditions: rats, plasma
Procedure: 5.1 Experimental animals: Male SD rats, about 220 g, 6-8 weeks old, 6 rats/compound, purchased from Chengdu Dossy Experimental Animals Co., Ltd.
5.2 Experimental design: On the day of the experiment, the SD rats were randomly grouped according to their body weights. The animals were fasted with water available for 12 to 14 h one day before the administration and were fed 4 h after the administration. Table 7 Administration information
Before and after the administration, 0.1 ml of blood was taken from the orbit of the animals under isoflurane anaesthesia and placed in an EDTAK2 centrifuge tube. The blood was centrifuged at 5000 rpm and 4°C for 10 min to collect plasma. Blood sampling time points for the intravenous administration group: 0, 5 min, 15 min, 30 min, 1 h, 2 h, 4 h, 6 h, 8 h, and 24 h; blood sampling time points for the intragastric administration group: 0, 5 min, 15 min, 30 min, 1 h, 2 h, 4 h, 6 h, 8 h and 24 h. Before analysis and detection, all samples were stored at -80°C. Table 8 Pharmacokinetic parameters of test compounds in plasma of rats

[4] = Beagle dog pharmacokinetic assay; conditions: beagle dogs
Procedure: Experimental animals: male beagle dogs, about 8-11 kg, 6 beagle dogs/compound, purchased from Beijing Marshall Biotechnology Co., Ltd.
Experimental method: On the day of the experiment, the beagle dogs were randomly grouped according to their body weights. The animals were fasted with water available for 12 to 14 h one day before the administration and were fed 4 h after the administration. The animals were administered according to Table 5. Table 5. Administration information
Before and after the administration, 1 ml of blood was taken from the jugular veins or limb veins, and placed in an EDTAK2 centrifuge tube. Centrifugation was performed at 5000 rpm at 4°C for 10 min, and plasma was collected. The blood collection time points for the intravenous group and intragastric group were both 0 min, 5 min, 15 min, 30 min, 1 h, 2 h, 4 h, 6 h, 8 h, 10 h, 12 h, 24 h, 48 h, and 72 h. Before analysis and detection, all samples were stored at -80°C. The samples were analysed quantitatively by LC-MS/MS. Table 6. Pharmacokinetic parameters of test compounds in plasma of beagle dogs

[5] = Mouse pharmacokinetic assay; conditions: mice; for AUC0-t / T1/2 / CL / Vdss: plasma
Procedure: 1.1 Experimental animals: male ICR mice, 20-25 g, 12 mice/compound. purchased from Chengdu Dossy Experimental Animals Co., Ltd.
1.2 Experimental design: On the day of the experiment, the ICR mice were randomly grouped according to their body weights. The animals were fasted with water available for 12 to 14 h one day before the administration and were fed 4 h after the administration. Table 3. Administration information
Before and after administration, 0.06 mL of blood was taken from the orbit under isoflurane anaesthesia and placed in an EDTAK2 centrifuge tube for centrifugation at 5000 rpm at 4°C for 10 min, followed by plasma collection. The blood collection time points for the intravenous administration group and intragastric administration group were 0, 5 min, 15 min, 30 min, 1 h, 2 h, 4 h, 7 h and 24 h. Before analysis and detection, all samples were stored at -80°C, and a quantitative analysis of samples was performed using LC-MS/MS. Table 4. Pharmacokinetic parameters of test compounds in plasma of mice

[6] = reported; cited from earlier work
[7] = intragastric administration (10 mg/kg)
[8] = intravenous administration (2.5 mg/kg)

SMILES: Cn1cnc2ccc(Oc3c(F)ccc(NS(=O)(=O)N4CC(CF)C4)c3C#N)cc2c1=O
IC50 [1]: < 0.01 µM

SMILES: N#Cc1c(NS(=O)(=O)N2CC3(CCC3)C2)ccc(F)c1Oc1ccc2ncn(C3COC3)c(=O)c2c1
IC50 [1]: < 0.01 µM

SMILES: N#Cc1c(NS(=O)(=O)N2CC3(CCC3)C2)ccc(F)c1Oc1ccc2ncn3ccnc3c2c1
IC50 [1]: < 0.01 µM

SMILES: N#Cc1c(NS(=O)(=O)N2CC3(CCC3F)C2)ccc(F)c1Oc1ccc2ncn(CC(F)F)c(=O)c2c1 (single isomer, unassigned)
IC50 [2]: < 0.01 µM | IC50 [1]: < 0.01 µM

SMILES: COn1cnc2ccc(Oc3c(F)ccc(NS(=O)(=O)N4CC[C@@H](F)C4)c3C#N)cc2c1=O
IC50 [1]: < 0.01 µM

SMILES: CC(C)(C)c1nc(-c2cccc(NS(=O)(=O)c3c(F)cccc3F)c2F)c(-c2ccnc(N)n2)s1
total brain-to-plasma ratio [6]: 0.023

SMILES: Cc1cnc2c3cc(Oc4c(F)ccc(NS(=O)(=O)N5CC6(CCC6)C5)c4C#N)ccc3ncn12
IC50 [1]: < 0.01 µM | brain/plasma ratio ([5]; i.g. (10 mg/kg)): 0.0162 | AUC0-t ([5]; i.g. (10 mg/kg)): 442.783 µg·h/mL | T1/2 ([5]; i.g. (10 mg/kg)): 14.2 h | AUC0-t ([5]; i.v. (2.5 mg/kg)): 125.977 µg·h/mL | T1/2 ([5]; i.v. (2.5 mg/kg)): 7.5 h | Vdss ([5]; i.v. (2.5 mg/kg)): 0.135 L/kg

SMILES: N#Cc1c(NS(=O)(=O)N2CC3(CC3)C2)ccc(F)c1Oc1ccc2ncn3ccnc3c2c1
IC50 [1]: < 0.01 µM

SMILES: Cn1cnc2ccc(Oc3c(F)ccc(NS(=O)(=O)N4CCC5CC54)c3C#N)cc2c1=O (racemic)
IC50 [1]: < 0.01 µM

Second part, the molecule after the results:

IC50 [1]: < 0.01 µM
SMILES: N#Cc1c(NS(=O)(=O)N2CC[C@@H](F)C2)cc(F)c(F)c1Oc1ccc2ncn(CCF)c(=O)c2c1

IC50 [2]: < 0.01 µM | IC50 [1]: < 0.01 µM
SMILES: N#Cc1c(NS(=O)(=O)N2CC3(CCC3)C2)ccc(F)c1Oc1ccc2ncn(CCF)c(=O)c2c1

IC50 [2]: < 0.01 µM | IC50 [1]: < 0.01 µM
SMILES: N#Cc1c(NS(=O)(=O)N2CC3(CCC3)C2)ccc(F)c1Oc1ccc2ncn(CC(F)F)c(=O)c2c1

IC50 [1]: < 0.01 µM | AUC0-t [3, 7]: 4256.852 µg·h/mL | T1/2 [3, 7]: 60.6 h | AUC0-t [3, 8]: 1156.844 µg·h/mL | CL [3, 8]: 0.036 mL/min/kg | T1/2 [3, 8]: 50.9 h | Vdss [3, 8]: 0.156 L/kg
SMILES: N#Cc1c(NS(=O)(=O)N2CC3(CC3)C2)ccc(F)c1Oc1ccc2ncn(CCF)c(=O)c2c1

F ([4]; i.g. (3 mg/kg)): ≥ 98% | AUC0-t ([4]; i.g. (3 mg/kg), plasma): 116.724 µg·h/mL | AUC0-t ([4]; i.v. (0.5 mg/kg), plasma): 17.68 µg·h/mL | CL ([4]; i.v. (0.5 mg/kg), plasma): 0.492 mL/min/kg | Vdss ([4]; i.v. (0.5 mg/kg), plasma): 0.156 L/kg | IC50 [2]: 0.01 to 0.05 µM | IC50 [1]: < 0.01 µM | F ([5]; i.g. (10 mg/kg)): 96.5% | brain/plasma ratio ([5]; i.g. (10 mg/kg)): 0.013 | AUC0-t ([5]; i.g. (10 mg/kg)): 861.406 µg·h/mL | T1/2 ([5]; i.g. (10 mg/kg)): 10.7 h | AUC0-t ([5]; i.v. (2.5 mg/kg)): 223.249 µg·h/mL | CL ([5]; i.v. (2.5 mg/kg)): 0.133 mL/min/kg | T1/2 ([5]; i.v. (2.5 mg/kg)): 14.8 h | Vdss ([5]; i.v. (2.5 mg/kg)): 0.148 L/kg
SMILES: Cn1cnc2ccc(Oc3c(F)ccc(NS(=O)(=O)N4CC5(CCC5)C4)c3C#N)cc2c1=O

IC50 [1]: < 0.01 µM
SMILES: N#Cc1c(NS(=O)(=O)N2CC3(CCC3(F)F)C2)ccc(F)c1Oc1ccc2ncn(CC(F)F)c(=O)c2c1

IC50 [2]: 0.01 to 0.05 µM | IC50 [1]: < 0.01 µM
SMILES: N#Cc1c(NS(=O)(=O)N2CC3(CCC3)C2)ccc(F)c1Oc1ccc2ncn(CC(F)(F)F)c(=O)c2c1

IC50 [1]: < 0.01 µM
SMILES: N#Cc1c(NS(=O)(=O)N2CC3(CC3)C2)cc(F)c(F)c1Oc1ccc2ncn(CCF)c(=O)c2c1

IC50 [2]: 0.01 to 0.05 µM | brain/plasma ratio ([5]; i.g. (10 mg/kg)): 0.0095 | AUC0-t ([5]; i.g. (10 mg/kg)): 848.012 µg·h/mL | T1/2 ([5]; i.g. (10 mg/kg)): 11.74 h | AUC0-t ([5]; i.v. (2.5 mg/kg)): 376.04 µg·h/mL | CL ([5]; i.v. (2.5 mg/kg)): 0.0822 mL/min/kg | T1/2 ([5]; i.v. (2.5 mg/kg)): 12.8 h | Vdss ([5]; i.v. (2.5 mg/kg)): 0.0837 L/kg
SMILES: N#Cc1c(NS(=O)(=O)N2CC3(CCC3)C2)ccc(F)c1Oc1ccc2ncn(C3CC3)c(=O)c2c1

AUC0-t ([4]; i.g. (3 mg/kg), plasma): 84.281 µg·h/mL | AUC0-t ([4]; i.v. (0.5 mg/kg), plasma): 31.095 µg·h/mL | Vdss ([4]; i.v. (0.5 mg/kg), plasma): 0.08 L/kg | IC50 [2]: < 0.01 µM | IC50 [1]: < 0.01 µM
SMILES: N#Cc1c(NS(=O)(=O)N2CC3(CCC3)C2)cc(F)c(F)c1Oc1ccc2ncn(CCF)c(=O)c2c1

IC50 [1]: < 0.01 µM
SMILES: Cn1cnc2ccc(Oc3c(F)ccc(NS(=O)(=O)N4CC5(CC5)C4)c3C#N)cc2c1=O
